# Antibody variant affinities, Ab-91 heavy chain, assay 2

The measurements come from Engelhart et al. 2022 (doi:10.1038/s41597-022-01779-4) through the FLAb antibody collection.

The target is the same throughout: PDVDLGDISGINAS, from the HR2 region of SARS-CoV-2 spike.

Parent: Ab-91, a human scFv built as VL, a (GGGGS)3 linker, VH. Only the CDRs of the heavy chain vary.
VL: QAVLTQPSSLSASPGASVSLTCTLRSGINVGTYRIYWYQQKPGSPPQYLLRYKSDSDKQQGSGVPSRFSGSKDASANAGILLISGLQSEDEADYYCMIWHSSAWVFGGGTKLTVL
VH: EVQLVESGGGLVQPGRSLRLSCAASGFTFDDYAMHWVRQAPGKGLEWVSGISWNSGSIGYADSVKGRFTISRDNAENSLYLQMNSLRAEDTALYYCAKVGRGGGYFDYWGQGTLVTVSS

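The starting antibody came from a phage panning campaign against this peptide. Variants in AAYL51 differ from the parent at up to three CDR positions; double and triple changes were sampled at random. The assay is AlphaSeq: two haploid yeast populations carry antibody and antigen on their surface. After mating in shaken culture at 30 °C for 16 h, diploids were selected and their barcode pairs sequenced. A regression on co-assayed BCL2-family reference pairs converts the normalised counts of each replicate to an apparent Kd. There are three technical replicates.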

Each variant is given by its three heavy chain CDRs, as the data file delimits them; those of the parent are GFTFDDYAMH, GISWNSGSIGYADSVK, VGRGGGYFDY.
This list gathers variants with a substitution at W53 (VH, numbered from residue 1).
Values are apparent Kd, the geometric mean of the replicates that gave a signal; lower means stronger binding.
An entry "nd" has no value in the source: the pair was not observed among the diploids in any replicate. This suggests poor binding but is not conclusive.
Empty control strains, which show no peptide, gave a signal in 21% of pairings with library AAYL51; the median was 34 µM and 95% of these signals were weaker than 1.8 µM. No background was subtracted.
For reference, the parent read 72 nM as the reference entry and 7.5 nM as a member of this library.

The variant GFTFDDYAMH / GISGNSGSIGYADSVK / VSRGGGYRDY gave 220 µM (1 of 3 replicates). The variant GFTFDDYAMH / GHSINSGSIGYADSVL / VGRGGGYFDY gave 1.1 µM (1 of 3 replicates). The variant GFTFDDYAMH / GISRNSGSIGYAMSVK / VGRGGGYDDY gave 12 µM (3 of 3 replicates). For GFTFDDYAMH / GISSNSGSIGYADSVK / VGWGGGYFDF, the assay gave 28 µM (1 of 3 replicates). With GRTFDDYAMH / GISTNSGSIGYADSVK / VGRGGGYFDY the result was 6.7 µM (1 of 3 replicates). For GFTFDDYAMH / GIEDNSGSIGYLDSVK / VGRGGGYFDY, the assay gave nd (0 of 3 replicates). For GFTFDDYAMH / GISGNSGSIPYADSVK / VGRGGGYFDY, the assay gave nd (0 of 3 replicates).

The variant GFTFDDYMML / GISQNSGSIGYADSVK / VGRGGGYFDY gave 1.4 µM (2 of 3 replicates). For GFTFDDNAMH / GISANSGSIGYADSVK / VGRGGGYFDY, the assay gave 62 nM (3 of 3 replicates). The variant GFTFDDYAMH / GISINSGSIYYADSVK / VGRGGGYIDY gave 28 µM (1 of 3 replicates). The variant GFTFDDYAMH / GISGNSGSIGYADSVK / VGRGGGDNDY showed 4.8 nM (3 of 3 replicates). For GFTFDDYAMH / GISINSGNIGYADYVK / VGRGGGYFDY, the assay gave 310 µM (1 of 3 replicates). The variant GFTFRDEAMH / GISINSGSIGYADSVK / VGRGGGYFDY showed 14 µM (1 of 3 replicates). For GFTFDDYAMH / GISGNCGSIGYADSVK / VGRGGGYFDF, the assay gave 1.1 µM (3 of 3 replicates).

With GFTFDDYAMH / GISENSGSIGYADSVK / VGWGGGYFAY the result was nd (0 of 3 replicates). The variant GFTFDDYAMH / GISQNSGSIGYADSQK / VGRGGGYFCY showed 580 nM (1 of 3 replicates). For GFTFDDIAMH / GISDNSGLIGYADSVK / VGRGGGYFDY, the assay gave 660 µM (1 of 3 replicates). With GFTFDDWAMH / GIPFNSGSIGYADSVK / VGRGGGYFDY the result was 34 µM (1 of 3 replicates). The variant GFVFDDYAMH / GISPNSGSIGWADSVK / VGRGGGYFDY showed 85 nM (3 of 3 replicates). With GFTFDDYAIH / GISRNVGSIGYADSVK / VGRGGGYFDY the result was nd (0 of 3 replicates). For GFTFDDYAIH / GISYNSGSIGYADSVK / VGRGGGYFDY, the assay gave 120 µM (1 of 3 replicates).

The variant GFTFDDYAMH / GISMNSGSIGYADSVK / VGRGGGYFDY showed nd (0 of 3 replicates). The variant GFTFDDYAMH / GISTNSCSKGYADSVK / VGRGGGYFDY gave 44 nM (3 of 3 replicates). The variant EFTFDDYAMH / GISVNSGSIGYADSVK / VGRGGGYFDC showed 250 µM (3 of 3 replicates). With GFQFDDYAMH / GISHNSGSIGYADSVK / PGRGGGYFDY the result was 200 µM (3 of 3 replicates). With GFTFDDYAMH / GISVNSGSIGYAHSVK / VGRGGAYFDY the result was nd (0 of 3 replicates). For GFTFDDYKMH / GISSNSGSIGYADSVK / VGRGGGGFDY, the assay gave 59 µM (1 of 3 replicates). With GFTFDDYAMH / GCSVNSGSIGYADSVK / VGRGGGTFDY the result was nd (0 of 3 replicates).

With GFTFDDYAMH / GISRNLGSIGYADSVK / AGRGGGYFDY the result was 24 µM (1 of 3 replicates). With GFTFDDYAMH / GISKNSDSIGYADSVK / VGCGGGYFDY the result was nd (0 of 3 replicates). With GFTFDDYAMH / GISKNSGSIGYQDSVK / AGRGGGYFDY the result was 8.8 µM (3 of 3 replicates). The variant GFTFDDYAMH / GISGRSGSIKYADSVK / VGRGGGYFDY showed 420 µM (3 of 3 replicates). For GFTFDDYAMH / GISENSGSIGYADSVM / VGRGGGYFDY, the assay gave 430 µM (1 of 3 replicates). With GFTFDDYAMH / GISTNSGSIGYAFSVK / WGRGGGYFDY the result was nd (0 of 3 replicates).

The first 3 entries again:

CDR-H1,CDR-H2,CDR-H3,Kd (apparent),seen in
GFTFDDYAMH,GISGNSGSIGYADSVK,VSRGGGYRDY,220 µM,1 of 3
GFTFDDYAMH,GHSINSGSIGYADSVL,VGRGGGYFDY,1.1 µM,1 of 3
GFTFDDYAMH,GISRNSGSIGYAMSVK,VGRGGGYDDY,12 µM,3 of 3